Reference: patent publication US20100226922A1, “SPECIFIC PROTEASE INHIBITORS AND THEIR USE IN CANCER THERAPY” (priority 2006, published 2010)

Legend:
[1] = tested on: EpCAM-YFP cleavage in HEK293 cells; experiment: EpIC formation (EpCAM cleavage) by immunoblot in HEK293 cells transiently transfected with EpCAM-YFP; format: cell-based, human; settings: 60 nM Compound E over two days
Source text: In the beginning of the study nothing was known about the molecular mechanisms underlying the signalling mechanisms of EpCAM. In order to test for potential EpCAM cleavage, full-length EpCAM was C-terminally fused to the yellow fluorescence protein to generate EpCAM-YFP. Similarly, a potential intracellular domain of EpCAM (EpIC), starting with serine^289, was fused to the YFP moiety to generate EpIC-YFP. For this purpose, EpCAM or EpIC cDNA sequences were cloned into peYFP-N1 (BD Biosciences, Heidelberg Germany). […] HEK293 cells are human embryonic kidney cells, which were cultured in standard DMEM containing 10% fetal calf serum and passaged three times per week. Transfection was carried out with MATra reagent (IBA, Göttingen, Germany) in six-well plates (5×10^5 cells/well) according to the manufacturer's protocol. One microgram of plasmid DNA was transfected per sample for a time period of 24 h. For immunoblot analysis, 1×10^6 cells were lysed in 100 μl lysis buffer (TBS/1% triton and protease inhibitors). Lysates were pre-cleared upon centrifugation (13.000 rpm, 4° C., 10 min), separated upon SDS-PAGE, and transferred onto PVDF membranes (Millipore, Bedford, US). The expression of both proteins was assessed upon immunobloting with EpIC- (A20 or 1144, which are α-EpIC antibodies; Santa Cruz Biotech, USA and Epitomics, USA) and YFP-specific antibodies in combination with horseradish peroxidase (HRP)-conjugated secondary antibodies and the ECL reagent (Amersham Biosciences).
The interaction of EpCAM with PS-2 and TACE indicates an involvement of these proteases in the proteolytic processing of EpCAM. To confirm this, HEK293 cells were transiently transfected with EpCAM-YFP expression plasmid. Briefly, 5×10^5 cells were plated in 6-well plates and transiently transfected 24 h later with 1 μg plasmid DNA using the MATra transfection reagent (IBA, Göttingen, Germany—1 μl reagent per 1 μg DNA). […] Cleavage of EpIC was assessed with an EpIC-specific antibody (1144, Epitomics, USA) in a time kinetic. […]

[2] = tested on: TCF/Lef-responsive promoters in HEK293 cells; experiment: TCF/Lef (Lef 1 consensus) luciferase reporter assay in HEK293 cells; format: cell-based, human; settings: transient transfection, treated with PS-inhibitor

Question: What does the source list for “N—[N-(3,5-difluorophenacetyl)]-1-alanyl-3-amino-1-methyl-5-phenyl-1,3-dihydro-benzo[e](1,4)diazepin-2-one”?
Answer: induction of the target genes c-myc and eFABP [1]: impaired induction; intermediate cleavage products of EpCAM with a molecular weight of 33-37 kDa [1]: accumulation of intermediate cleavage products; formation of EpIC ([1]; time kinetic, EpIC-specific antibody 1144): reduced formation of EpIC; induction of Lef 1 consensus reporter by transfected full-length EpCAM or EpIC [2]: completely abrogated this induction by EpCAM but not by EpIC
